Laboratory results published in patent US8722706B2, “Two phase bioactive formulations of bis-quaternary pyridinium oxime sulfonate salts” (dated 2014).

Test: Stability of solid MMB4-DMS at 40° C., generation of 4-PA

## 1,1′-methylenebis[4-[(hydroxyimino)methyl]-pyridinium]dimethanesulfonate
0 months
  4-Pyridine-aldoxime (% by wt.): <0.04 % by wt.
1 month
  4-Pyridine-aldoxime (% by wt.): <0.04 % by wt.
2 months
  4-Pyridine-aldoxime (% by wt.): <0.04 % by wt.
3 months
  4-Pyridine-aldoxime (% by wt.): <0.04 % by wt.
4 months
  4-Pyridine-aldoxime (% by wt.): <0.04 % by wt.
6 months
  4-Pyridine-aldoxime (% by wt.): <0.04 % by wt.
9 months
  4-Pyridine-aldoxime (% by wt.): <0.04 % by wt.
12 months
  4-Pyridine-aldoxime (% by wt.): <0.04 % by wt.
Over a one year time period
  level of 4-PA: ≤ 0.04 % by weight
